Source: PubChem BioAssay AID1424 (The Scripps Research Institute Molecular Screening Center, 2008)
The list shows a part of the results, in another mix than the full data. Active and inactive are the calls of the source.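 Rule for the calls: active = activation above its plate's cutoff, the mean activation of test wells on that plate plus 3 SD (cut at about 19% in these data); inactive = the rest.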

System: transient receptor potential cation channel N1 (TRPN1/NompC), Danio rerio
Test: zebrafish TRPN1 channel agonists, primary screen, cell-based, HEK293, calcium fluorescence (AID 1424);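 note: 0% = DMSO alone and 100% = 87 µM carbachol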
Details: HEK293 zebrafish TRPN1-YFP, Fluo-8 calcium fluorescence; at 3 µM; stronger effect = higher value; 100% = response to 87 µM carbachol
Outline: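 Assay system: Zebrafish TRPN1-YFP in HEK293 cells | Incubation: Dye loading 1 h at 37 °C, then 30 min room temperature | Measured by: Kinetic Fluo-8 fluorescence, ex 470-495, em 515-575 nm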

| Compound | activation |
| --- | --- |
| COc1ccc(OP(C)(=O)Nc2cccc(F)c2)cc1 (stereo unspecified) | inactive: -0.08% |
| COc1ccccc1OP(C)(=O)Nc1cc(Cl)ccc1C (stereo unspecified) | inactive: -0.4% |
| Cc1cc(C)cc(OP(C)(N)=O)c1 (stereo unspecified) | inactive: -0.6% |
| CCOC(=O)c1ccc(NP(C)(=O)Oc2ccccc2)cc1 (stereo unspecified) | inactive: 0.43% |
| Cc1ccc(NP(C)(=O)Oc2ccccc2)c(C)c1 (stereo unspecified) | inactive: 0.09% |
| COc1ccccc1OP(C)(=O)Nc1ccc(C)cc1 (stereo unspecified) | inactive: 0.75% |
| Cc1cccc(C)c1OP(C)(N)=O (stereo unspecified) | inactive: 0.94% |
| CC(C)(C)c1ccc(OP(C)(=O)Nc2ccc(SC(F)(F)F)cc2)cc1 (stereo unspecified) | inactive: -0.25% |
| O=[N+]([O-])c1ccc2c(c1)C=Nc1ccccc1O2 | inactive: -1.04% |
| CCN(CC)CCCOC(=O)C(O)(c1ccccc1)c1ccccc1 | inactive: 0.59% |
| CP(=O)(Nc1ccccn1)Oc1ccc(Cl)cc1 (stereo unspecified) | inactive: -0.05% |
| CCOP(C)(=S)SCC(=O)NC(C)C(=O)O (stereo unspecified) | inactive: 1.21% |
| CCOC(=O)c1ccc(NP(C)(=O)Oc2ccc(OC)cc2)cc1 (stereo unspecified) | inactive: 0.33% |
| Cc1cc(C)cc(OP(C)(=O)Nc2ccc(SC(F)(F)F)cc2)c1 (stereo unspecified) | inactive: 0.15% |
| CCc1ccc(OP(C)(=O)N2CCN(c3ccc([N+](=O)[O-])cc3)CC2)cc1 (stereo unspecified) | inactive: 4.26% |
| CP(=O)(NC(=O)Nc1ccccc1)Oc1ccccc1 (stereo unspecified) | inactive: 1.34% |
| CP(=O)(Oc1ccccc1)OC(c1ccccc1)C(F)(F)F (stereo unspecified) | inactive: -1.03% |
| CP(=O)(Nc1ccc(SC(F)(F)F)cc1)Oc1ccc(Cl)cc1 (stereo unspecified) | inactive: 0.96% |
| Cc1cccc(C)c1OP(C)(=O)Nc1ccc(SC(F)(F)F)cc1 (stereo unspecified) | inactive: 0.21% |
| COc1ccccc1OP(C)(=O)Nc1ccccc1 (stereo unspecified) | inactive: -1.85% |
| CP(=O)(Nc1ccccc1Br)Oc1ccccc1 (stereo unspecified) | inactive: -0.2% |

| Compound | activation |
| --- | --- |
| CP(=S)(Nn1cnnc1)Oc1ccccc1 (stereo unspecified) | inactive: 0.38% |
| CP(=O)(Nc1ccc(SC(F)(F)F)cc1)Oc1ccccc1 (stereo unspecified) | inactive: 2.24% |
| CCCOc1ccc(NP(C)(=O)Oc2ccc(Cl)cc2)cc1 (stereo unspecified) | inactive: -3.11% |
| CN1CCCCC1COC(=O)C1(O)c2ccccc2CCc2ccccc21 (stereo unspecified) | inactive: 0.26% |
| COc1ccccc1OP(C)(=O)Nc1c(C)cccc1C (stereo unspecified) | inactive: 1.27% |
| CCOC(=O)C(CC)C1=NC(C)(C)Cc2ccccc21.O=[N+]([O-])c1cc([N+](=O)[O-])c(O)c([N+](=O)[O-])c1 (stereo unspecified) | inactive: -1.57% |
| O=[N+]([O-])c1cc([N+](=O)[O-])c(Nc2nnnn2CCO)c([N+](=O)[O-])c1 | inactive: -0.1% |
| Cc1nc2ccc3ccccc3c2s1.O=[N+]([O-])c1cc([N+](=O)[O-])c(O)c([N+](=O)[O-])c1 | inactive: -0.65% |
| O=[N+]([O-])c1cc([N+](=O)[O-])c(-n2nnc3ccccc32)c([N+](=O)[O-])c1 | inactive: 1.04% |
| CP(=O)(Nc1cccc(Br)c1)Oc1ccccc1 (stereo unspecified) | inactive: -0.5% |
| Cc1cc(C)cc(OP(C)(=O)Nc2ccccn2)c1 (stereo unspecified) | inactive: -1.25% |
| Cc1ccc(C)c(NP(C)(=O)Oc2ccccc2)c1 (stereo unspecified) | inactive: -0.16% |
| Cc1cc(C)cc(OP(C)(=O)Nc2ccc(C)cc2C)c1 (stereo unspecified) | inactive: -0.96% |
| CCOC(=O)c1ccc(NP(C)(=O)Oc2cc(C)cc(C)c2)cc1 (stereo unspecified) | inactive: -0.12% |
| COc1ccccc1OP(C)(=O)Nc1cccc(Br)c1 (stereo unspecified) | inactive: 0.27% |
| CC1=NCCc2c1[nH]c1ccccc21.O=[N+]([O-])c1cc([N+](=O)[O-])c(O)c([N+](=O)[O-])c1 | inactive: -0.14% |
| O=C(O)c1cccc(Nc2c([N+](=O)[O-])cc([N+](=O)[O-])cc2[N+](=O)[O-])c1 | inactive: -0.51% |
| CCCCCOc1ccc(NP(C)(=O)Oc2ccc(Cl)cc2Cl)cc1 (stereo unspecified) | inactive: -0.56% |
| CP(=O)(Nc1ccccc1)Oc1ccc(F)cc1 (stereo unspecified) | inactive: -0.99% |
| CCN(CC)CCCOC(=O)C(O)(c1ccccc1)C1CCCCC1 (stereo unspecified) | inactive: 1.25% |
| COc1ccc(OP(C)(=O)Nc2ccc(SC(F)(F)F)cc2)cc1 (stereo unspecified) | inactive: 1.01% |

| Compound | activation |
| --- | --- |
| CCOC(=O)c1ccc(NP(C)(=O)Oc2ccc(F)cc2)cc1 (stereo unspecified) | inactive: -0.71% |
| O=C(OCCN1CCN(CCOCc2ccccc2)CC1)C(O)(c1ccccc1)c1ccccc1 | inactive: 0.59% |
| O=C(OC1CN2CCC1CC2)c1ccc([N+](=O)[O-])cc1 (stereo unspecified) | inactive: 1.94% |
| CC(C)c1ccc(OP(C)(=O)Nc2ccc(SC(F)(F)F)cc2)cc1 (stereo unspecified) | inactive: 0.64% |
| CP(=O)(Nc1ccccc1F)Oc1ccccc1 (stereo unspecified) | inactive: 1.43% |
| Cc1ccccc1NP(C)(=O)Nc1ccccc1C | inactive: -0.75% |
| CP(=O)(Nc1ccc2c(c1)OCCO2)Oc1ccccc1 (stereo unspecified) | inactive: 0.54% |
| CCOP(C)(=S)SCC(=O)NC(C)(CC)C(=O)O (stereo unspecified) | inactive: 0.09% |
| CP(=O)(Nc1ccc(SC(F)(F)F)cc1)Oc1ccc(F)cc1 (stereo unspecified) | inactive: 0.64% |
| Cc1cc(-c2cccc3ccccc23)c(C)cn1.O=[N+]([O-])c1cc([N+](=O)[O-])c(O)c([N+](=O)[O-])c1 | inactive: -5.59% |
| O=[N+]([O-])c1cc([N+](=O)[O-])c(NCC2CCS(=O)(=O)C2)c([N+](=O)[O-])c1 (stereo unspecified) | inactive: 1.51% |
| O=[N+]([O-])c1ccc(OP2(=O)COCCO2)cc1 (stereo unspecified) | inactive: 1.01% |
| COc1ccc(NP(C)(=O)Oc2ccccc2OC)cc1 (stereo unspecified) | inactive: -0.39% |
| CN(C)CCOC(=O)C(O)(c1ccccc1)C1CCCCC1 (stereo unspecified) | inactive: 0.03% |
| COc1ccc(OP(C)(=O)Nc2cccc(Br)c2)cc1 (stereo unspecified) | inactive: -3.02% |
| CP(=O)(OC12CC3CC(CC(C3)C1)C2)OC12CC3CC(CC(C3)C1)C2 | inactive: -0.99% |
| CCOC(=O)c1ccc(NP(C)(=O)Oc2ccc(Cl)cc2)cc1 (stereo unspecified) | inactive: -0.12% |
| CN(C)C(=O)c1c([N+](=O)[O-])cc([N+](=O)[O-])cc1[N+](=O)[O-] | inactive: 0.58% |
| CP(=O)(Nc1ccc(Cl)cc1)Oc1ccc(F)cc1 (stereo unspecified) | inactive: -0.32% |
